Bioassay records deposited in PubChem by National Center for Advancing Translational Sciences (NCATS).
Nrf2 activator: Nrf2 pathway activation; AREc32 ARE-luciferase reporter (MCF7-derived line), luminescence, 24 h; Potency, µM (top dose mostly 46.1 µM), most hits filed as activators; 410,000 tested, 0.31% active; AID 624171; also: nearly all actives have a fitted effect of over 65% in size
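For detection, Steady-Glo was added and plates sat 30 min at RT; before that, AREc32_Fluc cells grown overnight in OPTI-MEM/5% FBS had been treated with 23 nL compound for 24 hr at 37 deg C.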
GRP78 ERSR act: ER stress response induction in glioma; U87-MG GRP78 promoter luciferase reporter, 16 h; Potency, µM, most hits filed as activators; 420,000 tested, 0.02% active; also: series mostly up to about 76 µM; nearly all actives have a fitted effect of over 35% in size
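Stably transfected U87-MG glioma cells carrying a GRP78-based luciferase sensor; 16 h compound incubation. Luminescence end-point read 10 min after Bright-Glo addition at room temperature.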
Mito fusion yeast: blocks mitochondrial division or promotes mitochondrial fusion | S. cerevisiae fusion-defective mutant growth rescue, CellTiterGlo 48 h | Potency, µM (highest dose often 46.1 µM), usual class: activators | 320,000 tested, 0.23% active | AID 485298; also: nearly all actives have a fitted effect of over 45% in size
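Yeast fusion mutant, YPEG (non-fermentable carbon), compound, 48 h at 37C non-permissive; CellTiterGlo added, 10 min RT, luminescence read. Rescued growth = division inhibition.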
A549 viability: A549 cytotoxicity, counter-screen for Nrf2 inhibitors; A549 ARE-Fluc cells, CellTiter-Fluor viability, 18-24 h; Potency, µM (doses to about 46 µM), hits mostly inhibitors; 390,000 tested, 0.16% active; AID 504648
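A549 ARE-Fluc cells in 5% FBS OPTI-MEM, 5000 cells/well, rested 2 h then exposed to compounds in concentration-response for 18-24 h at 37 °C. Viability by CellTiter-Fluor fluorescence (Ex 405/Em 525) after 30 min; luciferase luminescence (BugLite, 15 min, RT) read afterwards.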
miR-21 reporter: miR-21 reporter, rising signal; HeLa miR-21 FLuc reporter, luciferase, 48 h; Potency, µM (highest dose often 38.3 µM); 340,000 tested, under 10 active; AID 2288; active = well fitted rising curve with a large enough effect; inconclusive = small, poorly fitted or top-dose-only effect; inactive = no such curve, though single readings can be large or run the other way;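 further: miR-21 action dims this reporter so a rising signal means less miR-21 action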
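HeLa miR-21-FLuc reporter line, endogenous miR-21; 2000 cells/well in DMEM/10% FBS; compound titration up to ~40uM final, 48 h, 37 degree Celsius; luciferase detection reagent, 15 min lysis, CCD luminescence.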
Nrf2 block: inhibitors of Nrf2 signaling. A549 ARE-Fluc reporter, luciferase luminescence, 18-24 h. Potency, µM (series often up to 46 µM), usual class: inhibitors. 360,000 tested, 2.1% active; also: nearly all actives have a fitted effect of over 60% in size
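Concentration-response testing used A549 ARE_Fluc cells at 5000 cells/well. Following an 18-24 h compound incubation, viability was read by fluorescence (Ex 405/Em 525) and luciferase output by luminescence.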
Of the large screens only hits and unclear results are named; the others gave an inactive call. Rows were chosen to be rich in hits. Some 2.3% of all compounds tested hit in one or more screens of this group. Unless noted, calls follow the shape of the dose curve; as a rule, active = well fitted curve in the direction sought with a large enough effect; inconclusive = small, poorly fitted or top-dose-only effect, or another doubt; inactive = no such curve, though single readings can be large; an effect the other way counts as inactive or inconclusive.

COc1cccc(-c2nc(=S)c3c(n2Cc2ccco2)CCCC3)c1	none
COc1cccc(-c2nc(=S)c3c(o2)CCCC3)c1	Nrf2 activator 11µM
S=c1nc(-c2ccccc2)oc2c1CCCC2	Nrf2 activator 11µM, Nrf2 block inconclusive
O=[N+]([O-])c1ccc(-c2nc(=S)c3c(o2)CCCC3)cc1	none
Nc1ccn([C@@H]2O[C@H](CNC(=O)[C@@H](N)CSCc3ccccc3)[C@@H](O)[C@H]2O)c(=O)n1	none (no result: Mito fusion yeast, A549 viability, miR-21 reporter, Nrf2 block)
COc1cc(OC)cc(-c2nnc(Sc3ccc(C=O)cc3[N+](=O)[O-])o2)c1	none (no result: Nrf2 activator, GRP78 ERSR act, A549 viability, Nrf2 block)
CCOc1ccccc1N1CCN(C(=O)c2cc(-c3cc(OC)ccc3OC)nc3ccccc23)CC1	Nrf2 block 21µM
O=C1[C@H]2[C@H](ON3CCCC[C@H]23)C(=O)N1c1ccc(Cl)cc1	Nrf2 block inconclusive
O=C1/C(=C/C=C/c2ccco2)SC(=S)N1c1ccc(O)cc1	Nrf2 activator 10µM
O=C(NCC(=O)N1CCN(Cc2ccccc2)CC1)c1ccc(Cl)cc1	Nrf2 block 29µM
O=C(NCc1ccc(Cl)cc1)N1CCN(Cc2ccccc2)CC1	Nrf2 block 23µM
COc1ccccc1NC(=O)c1ncoc1-c1ccco1	Nrf2 activator inconclusive (no result: Mito fusion yeast, Nrf2 block)
COC(=O)c1ccccc1NC(=O)c1ncoc1-c1ccco1	Nrf2 activator 1.1µM (no result: Mito fusion yeast, Nrf2 block)
Cc1ccc(Nc2cc(C)nn2-c2nc(C)cc(=O)[nH]2)cc1	Nrf2 activator inconclusive, GRP78 ERSR act inconclusive, A549 viability 13µM, miR-21 reporter inconclusive, Nrf2 block 1.8µM
O=C(NC1C/C=C\C(c2ccccc2)N(c2ccccc2)C(=O)C1)OCC1c2ccccc2-c2ccccc21 (stereo not drawn)	none (no result: Mito fusion yeast, miR-21 reporter)
CC(C)c1ccc(C2C3=C(CC(C)(C)CC3=O)NC3=C2C(=O)c2ccccc23)cc1 (stereo not drawn)	A549 viability 16µM, miR-21 reporter inconclusive, Nrf2 block 23µM
O=c1oc2c(-c3ccc([N+](=O)[O-])cc3)cc(O)cc2s1	Nrf2 activator 22µM
C[C@@H]1C[C@@H]2OC(=O)[C@]3(C)[C@H]2[C@@H](OC3(C)O)[C@]2(C)C(=O)C=C[C@H]12 (stereo partly drawn)	Nrf2 activator 14µM, miR-21 reporter inconclusive
COc1ccc(N2CCN(C(=O)CSc3nnnn3-c3ccc4c(c3)OCCO4)CC2)cc1	Nrf2 block 16µM
COc1ccc(-n2nnnc2SCC(=O)N2CCOCC2)cc1	Nrf2 block inconclusive
Cc1ccc(Nc2nc(Cl)c(C=O)s2)cc1Cl	Nrf2 activator inconclusive
O=Cc1sc(Nc2ccccc2)nc1Cl	Nrf2 activator 14µM
Cn1cc(C(=O)c2ccc(Cl)cc2Cl)cc1C(=O)N/N=C(\N)COc1ccc(Cl)cc1	miR-21 reporter inconclusive, Nrf2 block 13µM
Cn1cc(C(=O)c2ccc(Cl)cc2Cl)cc1C(=O)N/N=C(\N)COc1ccc(Cl)cc1Cl	A549 viability inconclusive, miR-21 reporter inconclusive, Nrf2 block 21µM
Cc1ccc(/C=C/c2onc(C)c2S(=O)(=O)N2CCC(C(=O)Nc3ccccc3C(F)(F)F)CC2)cc1	none (no result: Mito fusion yeast, Nrf2 block)
Cc1ccc(CCNc2nc3c(S(=O)(=O)c4ccccc4)nnn3c3ccsc23)cc1	none (no result: Mito fusion yeast)
Cc1ccc(S(=O)(=O)c2nnn3c2nc(NCCc2ccccc2)c2sccc23)cc1	Nrf2 block 21µM (no result: Mito fusion yeast)
COc1ccccc1OCC(=O)c1[nH]c(C)c(C(C)=O)c1C	Nrf2 block 5.2µM
CC(=O)c1c(C)[nH]c(C(=O)COc2ccc(C#N)cc2)c1C	Nrf2 block 12µM
COc1cc(C)ccc1OCC(=O)OCC(=O)c1[nH]c(C)c(C(C)=O)c1C	none (no result: Mito fusion yeast, miR-21 reporter)
CC(=O)c1c(C)[nH]c(C(=O)COC(=O)COc2ccccc2)c1C	none (no result: Mito fusion yeast, miR-21 reporter)
CC(=O)c1c(C)[nH]c(C(=O)COc2cc(C)ccc2C(C)C)c1C	miR-21 reporter inconclusive, Nrf2 block 7.3µM
O=C(Nc1ccc(Cl)cc1)c1ccc(CN2CCc3ccccc3C2)cc1	Nrf2 block inconclusive
COc1cccc(NC(=O)c2ccc(CN3CCc4ccccc4C3)cc2)c1	Nrf2 block 15µM
CC(=O)c1cccc(NC(=O)c2ccc(CN3CCc4ccccc4C3)cc2)c1	none
COc1ccc(NC(=O)c2ccc(CN3CCc4ccccc4C3)cc2)cc1OC	Nrf2 block 21µM
c1ccc2oc(Cc3ccc(Cc4nc5ccccc5o4)cc3)nc2c1	Nrf2 block 26µM
c1ccc2oc(CCc3nc4ccccc4o3)nc2c1	none
Cn1c(=O)n(/N=C/c2ccccc2)c2ccccc21	Nrf2 activator 11µM
Cn1c(N)c(N=Cc2ccccc2)c(=O)n(C)c1=O	none (no result: Mito fusion yeast, miR-21 reporter)
COc1ccccc1CN(C)CC(=O)Nc1ccccc1-c1ccccc1	A549 viability inconclusive, Nrf2 block 23µM
O=c1c2ccc(Cl)cc2nc(-c2cccc(C(F)(F)F)c2)n1O	miR-21 reporter inconclusive, Nrf2 block 23µM
O=C(NC1CCSc2ccccc21)c1cc([N+](=O)[O-])ccc1N1CCOCC1 (stereo not drawn)	none (no result: miR-21 reporter)
Nc1nc(SCC(=O)Nc2cccc(Oc3ccccc3)c2)n[nH]1	Nrf2 block 16µM
O=C(CCNS(=O)(=O)c1ccccc1)OCC(=O)c1ccc(F)cc1	Nrf2 block inconclusive (no result: miR-21 reporter)
O=C(N/N=C/c1cccc([N+](=O)[O-])c1)c1cccc2cc[nH]c12	Nrf2 activator inconclusive
O=C(N/N=C/c1cc([N+](=O)[O-])ccc1O)c1cccc2cc[nH]c12	GRP78 ERSR act inconclusive, A549 viability inconclusive, Nrf2 block 23µM
Cc1nc(N2CCN(Cc3ccccc3)CC2)nc2c1C(=O)CC(c1ccco1)C2 (stereo not drawn)	Nrf2 block inconclusive
Cc1nc(N2CCN(Cc3ccc4c(c3)OCO4)CC2)nc2c1C(=O)CC(c1ccco1)C2 (stereo not drawn)	Mito fusion yeast inconclusive, Nrf2 block 12µM
COc1ccc(OC)c(-c2csc(NC(=O)c3ccc(F)cc3)n2)c1	Nrf2 block 18µM
COc1cccc(C(=O)Nc2nc(-c3ccncc3)cs2)c1	Nrf2 block inconclusive
Cc1c(NC(=O)Cn2[nH]c(=O)c3ccccc3c2=O)c(=O)n(-c2ccccc2)n1C	none (no result: Nrf2 block)
COc1cccc(C(=O)Nc2nc(-c3ccc4c(c3)OCO4)cs2)c1	Mito fusion yeast inconclusive, Nrf2 block 13µM
COc1ccc(OC)c(-c2csc(NC(=O)Cn3[nH]c(=O)c4ccccc4c3=O)n2)c1	Nrf2 block 10µM
Cc1sc(NC(=O)Cn2[nH]c(=O)c3ccccc3c2=O)nc1-c1ccccc1	Nrf2 block 16µM
COc1ccc(OC)c(-c2csc(NC(=O)Cc3ccc(F)cc3)n2)c1	Nrf2 block inconclusive
